Results on 2 molecules are retold here after patent US6730296B1.

Chains of the proteins cited; added tags and fusions are not shown.
UniProt P61073, whole entry: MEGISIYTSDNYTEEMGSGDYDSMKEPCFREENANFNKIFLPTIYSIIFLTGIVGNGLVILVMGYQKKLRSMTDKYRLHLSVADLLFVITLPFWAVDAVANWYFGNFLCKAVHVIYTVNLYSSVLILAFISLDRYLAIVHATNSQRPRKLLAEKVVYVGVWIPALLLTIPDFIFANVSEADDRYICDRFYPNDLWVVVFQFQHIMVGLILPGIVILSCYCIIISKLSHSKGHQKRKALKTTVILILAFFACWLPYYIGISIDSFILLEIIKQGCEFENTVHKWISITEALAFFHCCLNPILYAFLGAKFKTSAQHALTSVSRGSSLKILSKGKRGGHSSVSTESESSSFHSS

This assay has as its target fusin/CXCR4 receptor (human) (UniProt P61073).

B1: SDF-1α-Fc chimeric polypeptide encoded by S1-2 and S1-3 (Fc fusion)
chain: DGKPVSLSYRCPCRFFESHVARANVKHLKILNTPNCALQIVARLKNNNRQVCIDPKLKWIQEYLEKALNKGSGSGSGSGSESKYGPPCPSCPAPEFEGAPSVFLFPPKPKDTLMISRTPEVTCVVVDVSQEDPEVQFNWYVDGVEVHNAKTKPREEQFNSTYRVVSVLTVLHQDWLNGKEYKCKVSNKGLPSSIEKTISKAKGQPREPQVYTLPPSQEEMTKNQVSLTCLVKGFYPSDIAVEWESNGQPENNYKTTPPVLDSDGSFFLYSRLTVDKSRWQEGNVFSCSVMHEALHNHYTQKSLSLSLGK
Molecule B1 registered an anti-fusin antibody staining of Jurkat cells after 3-hour incubation at 37 degrees C, Median Channel (Median Channel) of 20.

B2: SDF-1α-Fc chimeric polypeptide encoded by SK2-2 (Fc fusion)
chain: KPVSLSYRCPCRFFESHVARANVKHLKILNTPNCALQIVARLKNNNRQVCIDPKLKWIQEYLEKALNKGSGSGSGSGSESKYGPPCPSCPAPEFEGAPSVFLFPPKPKDTLMISRTPEVTCVVVDVSQEDPEVQFNWYVDGVEVHNAKTKPREEQFNSTYRVVSVLTVLHQDWLNGKEYKCKVSNKGLPSSIEKTISKAKGQPREPQVYTLPPSQEEMTKNQVSLTCLVKGFYPSDIAVEWESNGQPENNYKTTPPVLDSDGSFFLYSRLTVDKSRWQEGNVFSCSVMHEALHNHYTQKSLSLSLGK
On to B2, for which the anti-fusin antibody staining of Jurkat cells after 3-hour incubation at 37 degrees C, Median Channel (Median Channel) stood at 22.
